Consider one compound from US8912180B2, “Heterocyclic compound” (Astellas Pharma Inc., priority 2010, dated 2014).

Chains of the proteins cited; added tags and fusions are not shown. Lines headed by an entry give the natural chain unless they say otherwise; changes in a name come on top.
UniProt P42336, whole entry: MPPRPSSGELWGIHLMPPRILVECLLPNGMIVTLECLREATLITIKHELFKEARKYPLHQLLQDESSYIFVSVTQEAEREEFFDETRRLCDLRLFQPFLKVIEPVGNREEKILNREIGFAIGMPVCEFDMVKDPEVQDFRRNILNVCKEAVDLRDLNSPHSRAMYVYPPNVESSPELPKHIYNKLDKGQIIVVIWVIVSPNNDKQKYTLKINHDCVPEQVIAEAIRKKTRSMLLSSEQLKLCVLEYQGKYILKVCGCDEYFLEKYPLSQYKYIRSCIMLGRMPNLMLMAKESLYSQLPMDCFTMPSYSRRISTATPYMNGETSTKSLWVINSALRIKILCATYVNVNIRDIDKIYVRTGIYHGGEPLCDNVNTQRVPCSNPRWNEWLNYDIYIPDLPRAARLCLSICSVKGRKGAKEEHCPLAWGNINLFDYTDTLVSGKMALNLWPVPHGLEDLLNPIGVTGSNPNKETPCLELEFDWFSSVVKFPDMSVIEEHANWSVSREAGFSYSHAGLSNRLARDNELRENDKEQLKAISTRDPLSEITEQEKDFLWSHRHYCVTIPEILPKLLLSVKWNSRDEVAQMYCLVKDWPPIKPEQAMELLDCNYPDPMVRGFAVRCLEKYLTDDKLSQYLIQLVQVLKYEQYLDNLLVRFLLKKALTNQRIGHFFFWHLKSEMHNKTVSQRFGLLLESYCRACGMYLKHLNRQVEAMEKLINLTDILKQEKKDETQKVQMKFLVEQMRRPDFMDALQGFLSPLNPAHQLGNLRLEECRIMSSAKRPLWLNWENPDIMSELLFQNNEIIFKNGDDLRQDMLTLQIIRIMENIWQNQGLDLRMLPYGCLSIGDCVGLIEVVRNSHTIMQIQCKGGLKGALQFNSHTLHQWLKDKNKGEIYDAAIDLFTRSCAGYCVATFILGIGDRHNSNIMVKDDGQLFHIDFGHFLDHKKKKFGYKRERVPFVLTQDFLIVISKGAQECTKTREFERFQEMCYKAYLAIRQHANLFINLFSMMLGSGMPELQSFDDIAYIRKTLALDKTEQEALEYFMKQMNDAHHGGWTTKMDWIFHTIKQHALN
UniProt O00329, whole entry: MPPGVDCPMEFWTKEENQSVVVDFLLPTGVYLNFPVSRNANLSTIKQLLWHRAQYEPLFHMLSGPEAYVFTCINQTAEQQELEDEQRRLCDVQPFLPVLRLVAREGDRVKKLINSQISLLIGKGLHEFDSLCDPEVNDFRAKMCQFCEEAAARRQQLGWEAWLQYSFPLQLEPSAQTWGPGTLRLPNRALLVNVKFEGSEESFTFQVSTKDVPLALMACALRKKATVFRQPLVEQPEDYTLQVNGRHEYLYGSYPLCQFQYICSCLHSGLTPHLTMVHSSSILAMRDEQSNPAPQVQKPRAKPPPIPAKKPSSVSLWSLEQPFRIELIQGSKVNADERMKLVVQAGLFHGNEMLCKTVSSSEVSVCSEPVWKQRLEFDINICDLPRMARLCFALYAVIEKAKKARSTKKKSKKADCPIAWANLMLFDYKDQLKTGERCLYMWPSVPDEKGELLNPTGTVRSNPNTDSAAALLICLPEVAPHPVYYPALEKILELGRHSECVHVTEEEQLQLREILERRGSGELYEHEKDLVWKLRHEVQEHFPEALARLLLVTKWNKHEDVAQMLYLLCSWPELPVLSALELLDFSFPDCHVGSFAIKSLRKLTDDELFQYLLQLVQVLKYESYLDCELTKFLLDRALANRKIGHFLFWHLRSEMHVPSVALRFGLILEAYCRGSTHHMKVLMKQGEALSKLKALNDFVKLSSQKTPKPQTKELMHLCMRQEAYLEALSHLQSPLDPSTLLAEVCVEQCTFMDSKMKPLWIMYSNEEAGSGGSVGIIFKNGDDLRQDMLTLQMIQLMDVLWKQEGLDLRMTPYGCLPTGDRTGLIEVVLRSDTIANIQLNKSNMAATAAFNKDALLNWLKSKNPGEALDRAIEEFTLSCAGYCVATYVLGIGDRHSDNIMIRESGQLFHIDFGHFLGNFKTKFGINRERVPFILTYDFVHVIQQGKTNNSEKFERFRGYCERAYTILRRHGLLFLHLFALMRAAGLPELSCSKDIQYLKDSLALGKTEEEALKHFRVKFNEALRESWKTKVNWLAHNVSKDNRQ
UniProt P27986, whole entry partner: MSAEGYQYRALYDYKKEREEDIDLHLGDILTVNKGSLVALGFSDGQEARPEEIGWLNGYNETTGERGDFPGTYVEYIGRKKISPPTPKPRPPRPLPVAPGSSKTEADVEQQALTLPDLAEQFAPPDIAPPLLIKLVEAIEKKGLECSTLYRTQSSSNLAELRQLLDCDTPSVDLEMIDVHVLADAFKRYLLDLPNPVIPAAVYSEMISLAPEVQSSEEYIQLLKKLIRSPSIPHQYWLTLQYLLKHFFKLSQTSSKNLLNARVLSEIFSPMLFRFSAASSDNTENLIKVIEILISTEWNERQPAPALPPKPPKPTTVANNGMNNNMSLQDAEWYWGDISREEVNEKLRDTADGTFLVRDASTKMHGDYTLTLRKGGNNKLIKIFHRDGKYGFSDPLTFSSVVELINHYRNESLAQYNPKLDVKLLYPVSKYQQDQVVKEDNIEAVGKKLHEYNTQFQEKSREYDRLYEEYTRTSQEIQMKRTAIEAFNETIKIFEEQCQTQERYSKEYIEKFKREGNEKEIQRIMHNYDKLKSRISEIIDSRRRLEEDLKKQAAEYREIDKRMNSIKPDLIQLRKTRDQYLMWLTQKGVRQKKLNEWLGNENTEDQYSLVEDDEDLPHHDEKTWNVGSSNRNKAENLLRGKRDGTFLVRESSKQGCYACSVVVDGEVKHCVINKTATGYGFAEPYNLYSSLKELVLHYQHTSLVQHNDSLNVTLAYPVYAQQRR

The target in assay [1] is Human PI3Kα (Homo sapiens, UniProt P42336). Briefly: PI3Kα enzyme inhibitory activity (Kinase-Glo Plus luminescence). The conditions noted are these: read-out: PI3Kα IC50; human PI3Kα 12 ng/well, phosphatidylinositol 0.2 μg/well, 37° C. 3 hours.
Assay [2] relates to Spleen cells prepared from male LEW/CrlCrlj rats (B cell proliferation). Briefly: Rat B cell proliferation inhibition test (anti-rat IgM, [3H]thymidine). As to conditions: read-out: IC50(nM) B cell proliferation, anti-rat IgM 3 μg/well, 48 hours culture. As to the method: 4. Rat B Cell Proliferation Inhibition Test
Spleen cells (1.0×10^5 cells/well) prepared from male LEW/CrlCrlj rats (Charles River Laboratories, Japan, Inc.), mouse F(ab′)2 fragment anti-rat IgM (3 μg/well, SouthernBiotech Associates, Inc., Catalogue No. 3082-14) and the test compound dissolved in DMSO (final DMSO concentration 0.1%) were mixed in a 96-well plate using a 10% FCS-containing RPMI-1640 culture medium (total 200 μL). They were cultured in a CO2 incubator for 48 hours and [^3H]thymidine (925 GBq/mmol, Moravek Biochemicals, Inc., Catalogue No. MT6038) was added thereto at 0.037 MBq/well at 4 hours before completion of culture. Cells were harvested in a GF/C glass filter using a cell harvester, and a radioactivity on the filter was measured using a liquid scintillation counter. The IC50 value of the compound was calculated, taking the dpm (disintegration per minute) without addition of IgM as an inhibition rate of 100% and the dpm without addition of the test compound as an inhibition rate of 0%, by a logistic method.

The target in assay [3] is human PI3Kδ enzyme (Homo sapiens, UniProt O00329). Briefly: PI3Kδ enzyme inhibitory activity (PI3-Kinase HTRF Assay kit). The conditions noted are these: read-out: PI3Kδ IC50; human PI3Kδ 10 ng/well, ATP 30 μM, PIP2 10 μM, room temperature 30 minutes. For orientation: In TR-FRET formats the signal depends on donor and acceptor labels being close together.

As for `CN1CC(C(=O)N2CC(Nc3nc(N4CCOCC4)nc(-n4c(C(F)F)nc5ccccc54)n3)C2)CC1=O` (stereo not drawn), the figures for the IC50 in assay [1], in assay [2] and in assay [3] were 1600 nM, 1.8 nM and 11 nM, respectively.
